{"source": "patent US20240125678A1", "about": "“COMPOUND, CELLULAR VESICLE STAIN, AND METHOD FOR FLUORESCENT STAINING OF CELLULAR VESICLES” (National University Corporation Tokai National Higher …, priority 2021, published 2024)", "tested_on": "living and dead B16F10 cells", "assay": "Fluorescence intensity measurement on living cells and dead cells", "details": "B16F10, 5×10^4 cells/100 μL, 1 μM, excitation 488 nm, dead cells by 30% ethanol"}
{"smiles": "CNc1ccc([N+](=O)[O-])c2nonc12", "values": [{"measurement": "difference of fluorescence intensity between living cells and dead cells", "result": "small"}]}
